Where “and” joins values, the source holds several entries; their conditions need not be identical. Identical values can stand only once. Some results are limits rather than exact numbers.

Amino acid sequences for entries named in this document (tags omitted).
UniProt P22909, whole entry: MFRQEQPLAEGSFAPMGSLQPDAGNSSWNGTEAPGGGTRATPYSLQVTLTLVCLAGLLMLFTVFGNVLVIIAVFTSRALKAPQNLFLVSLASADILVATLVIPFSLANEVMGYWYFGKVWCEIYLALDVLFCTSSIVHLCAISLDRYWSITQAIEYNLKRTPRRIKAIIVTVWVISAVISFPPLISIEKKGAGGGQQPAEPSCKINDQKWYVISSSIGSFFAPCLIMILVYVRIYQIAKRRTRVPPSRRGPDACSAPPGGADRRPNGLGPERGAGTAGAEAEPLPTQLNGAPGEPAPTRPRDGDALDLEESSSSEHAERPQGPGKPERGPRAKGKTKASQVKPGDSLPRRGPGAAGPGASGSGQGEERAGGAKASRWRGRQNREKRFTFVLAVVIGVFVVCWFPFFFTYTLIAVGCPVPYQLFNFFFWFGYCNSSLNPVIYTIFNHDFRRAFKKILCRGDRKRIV
UniProt P18841, whole entry: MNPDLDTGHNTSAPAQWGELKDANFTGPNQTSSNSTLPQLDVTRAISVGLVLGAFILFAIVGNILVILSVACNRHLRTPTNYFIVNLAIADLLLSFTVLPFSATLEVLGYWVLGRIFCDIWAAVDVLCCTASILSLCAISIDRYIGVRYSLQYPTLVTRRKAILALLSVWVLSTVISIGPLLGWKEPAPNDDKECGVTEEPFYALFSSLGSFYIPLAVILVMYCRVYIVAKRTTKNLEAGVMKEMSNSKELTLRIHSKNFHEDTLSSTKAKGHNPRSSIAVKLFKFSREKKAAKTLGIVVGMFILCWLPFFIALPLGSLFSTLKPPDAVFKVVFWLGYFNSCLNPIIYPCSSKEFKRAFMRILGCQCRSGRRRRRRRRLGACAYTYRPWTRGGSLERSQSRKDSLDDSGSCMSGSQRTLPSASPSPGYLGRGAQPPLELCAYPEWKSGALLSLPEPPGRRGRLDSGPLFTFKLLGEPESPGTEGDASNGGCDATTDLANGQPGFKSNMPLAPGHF
UniProt P15823, whole entry, looked up: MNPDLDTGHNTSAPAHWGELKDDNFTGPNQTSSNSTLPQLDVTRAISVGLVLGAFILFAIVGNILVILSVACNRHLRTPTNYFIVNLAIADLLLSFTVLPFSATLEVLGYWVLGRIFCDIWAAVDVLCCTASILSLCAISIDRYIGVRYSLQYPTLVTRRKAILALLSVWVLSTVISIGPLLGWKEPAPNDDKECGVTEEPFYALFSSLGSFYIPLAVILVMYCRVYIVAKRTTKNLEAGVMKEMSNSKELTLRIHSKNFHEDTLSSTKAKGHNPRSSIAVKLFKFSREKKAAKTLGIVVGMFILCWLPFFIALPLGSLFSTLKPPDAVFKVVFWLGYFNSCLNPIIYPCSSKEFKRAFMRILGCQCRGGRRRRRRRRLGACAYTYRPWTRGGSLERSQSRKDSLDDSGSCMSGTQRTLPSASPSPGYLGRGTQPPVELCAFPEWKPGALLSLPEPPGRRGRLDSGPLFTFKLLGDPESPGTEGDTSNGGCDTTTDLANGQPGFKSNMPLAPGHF
UniProt P23944, whole entry, looked up: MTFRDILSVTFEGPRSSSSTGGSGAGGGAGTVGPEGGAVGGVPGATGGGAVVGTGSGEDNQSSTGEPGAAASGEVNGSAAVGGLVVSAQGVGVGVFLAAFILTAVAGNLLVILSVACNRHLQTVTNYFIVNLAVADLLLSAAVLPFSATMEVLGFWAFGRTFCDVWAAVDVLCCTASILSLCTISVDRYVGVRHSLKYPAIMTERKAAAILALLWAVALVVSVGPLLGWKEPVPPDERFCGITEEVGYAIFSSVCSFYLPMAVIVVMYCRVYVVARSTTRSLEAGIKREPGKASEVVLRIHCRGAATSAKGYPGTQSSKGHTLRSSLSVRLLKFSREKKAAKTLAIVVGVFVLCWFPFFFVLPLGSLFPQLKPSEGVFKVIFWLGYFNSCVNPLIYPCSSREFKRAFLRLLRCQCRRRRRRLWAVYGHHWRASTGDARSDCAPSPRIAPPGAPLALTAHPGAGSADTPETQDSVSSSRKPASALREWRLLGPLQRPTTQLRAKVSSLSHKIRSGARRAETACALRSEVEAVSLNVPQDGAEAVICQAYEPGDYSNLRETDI
UniProt P08913, whole entry: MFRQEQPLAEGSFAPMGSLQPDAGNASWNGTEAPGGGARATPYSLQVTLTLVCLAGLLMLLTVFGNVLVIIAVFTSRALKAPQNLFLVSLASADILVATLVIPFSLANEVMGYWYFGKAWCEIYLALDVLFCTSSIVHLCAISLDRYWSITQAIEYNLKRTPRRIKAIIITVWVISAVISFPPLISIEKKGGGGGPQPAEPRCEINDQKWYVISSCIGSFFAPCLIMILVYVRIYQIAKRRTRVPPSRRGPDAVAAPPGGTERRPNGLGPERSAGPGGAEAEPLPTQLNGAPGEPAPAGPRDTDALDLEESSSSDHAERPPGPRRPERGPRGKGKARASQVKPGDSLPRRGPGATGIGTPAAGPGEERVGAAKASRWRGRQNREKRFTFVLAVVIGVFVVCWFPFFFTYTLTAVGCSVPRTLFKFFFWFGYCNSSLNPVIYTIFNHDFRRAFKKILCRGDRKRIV

The target in experiment [1] is T1, Alpha-1A adrenergic receptor (Oryctolagus cuniculus) (UniProt O02824).
T1 sequence (whole entry): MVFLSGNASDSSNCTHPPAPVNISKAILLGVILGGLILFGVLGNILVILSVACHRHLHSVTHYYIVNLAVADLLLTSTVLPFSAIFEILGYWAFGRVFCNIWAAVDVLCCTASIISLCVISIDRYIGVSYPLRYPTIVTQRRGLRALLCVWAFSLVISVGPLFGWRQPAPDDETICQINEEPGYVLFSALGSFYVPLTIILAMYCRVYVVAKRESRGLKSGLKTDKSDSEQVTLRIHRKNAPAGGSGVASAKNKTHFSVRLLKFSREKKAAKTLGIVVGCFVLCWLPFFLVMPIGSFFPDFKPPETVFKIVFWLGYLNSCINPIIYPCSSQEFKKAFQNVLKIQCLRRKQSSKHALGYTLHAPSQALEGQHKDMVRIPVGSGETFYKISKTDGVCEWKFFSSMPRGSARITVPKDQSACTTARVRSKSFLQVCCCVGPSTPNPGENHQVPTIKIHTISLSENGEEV
Description: Functional agonism of the compounds to constrict tissue containing the alpha-1A adrenergic receptor in rabbit urethra. Type of experiment: tissue-based. In short, it runs like this:
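α1-agonist dose–response curves in isolated tissue: rabbit urethra (α1A), rat spleen (α1B), rat aorta (α1D). Agonist potency and efficacy read from the concentration–response curves.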

Experiment [2] concerns the target Alpha-2A adrenergic receptor (Rattus norvegicus) (UniProt P22909). In words: Functional agonism to constrict tissue containing alpha-2A adrenergic receptor in rat prostatic vas deferens. The class given is tissue-based. In short, it runs like this: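 For α2A, dose–response curves measured inhibition of field-stimulated contraction of rat prostatic vas deferens. pD2 is −log EC50, the concentration giving 50% of total relaxation. Efficacy is percent relative to clonidine. Values are mean ± SEM.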

The target in experiment [3] is Alpha-1B adrenergic receptor (Mesocricetus auratus, UniProt P18841). In words: In vitro binding affinity towards alpha-1B adrenergic receptor of hamster clone in radioligand binding assay. Type of experiment: single protein. In short, it runs like this:
(§1)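 Radioligand binding at α1 subtypes: α1A from rat submaxillary gland, α1B hamster clone, α1D rat clone. Run essentially per an earlier method. Values are pKi (−log Ki) ± SEM from ≥3 determinations (2 where footnoted).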

For experiment [4], the target named is T2, Alpha-1A adrenergic receptor (Rattus norvegicus, UniProt P43140).
T2 sequence (P43140 whole entry): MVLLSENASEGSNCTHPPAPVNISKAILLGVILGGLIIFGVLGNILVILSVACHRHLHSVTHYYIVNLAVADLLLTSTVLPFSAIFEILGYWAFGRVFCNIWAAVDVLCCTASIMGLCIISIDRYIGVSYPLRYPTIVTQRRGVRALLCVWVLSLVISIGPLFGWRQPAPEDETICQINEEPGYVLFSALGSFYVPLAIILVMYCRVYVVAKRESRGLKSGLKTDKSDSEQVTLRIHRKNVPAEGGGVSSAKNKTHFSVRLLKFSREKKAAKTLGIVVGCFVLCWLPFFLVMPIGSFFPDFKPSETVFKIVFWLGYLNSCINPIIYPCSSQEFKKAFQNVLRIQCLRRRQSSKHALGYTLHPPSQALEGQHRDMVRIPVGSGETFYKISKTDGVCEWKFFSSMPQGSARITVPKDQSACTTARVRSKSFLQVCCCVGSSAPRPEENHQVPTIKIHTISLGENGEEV
In words: In vitro binding affinity towards alpha-1A adrenergic receptor of rat submaxillary gland in radioligand binding assay. In short, it runs like this:
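Radioligand binding at α1 subtypes: α1A from rat submaxillary gland, α1B hamster clone, α1D rat clone. Run essentially per an earlier method.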

Experiment [5] can be described thus: Selectivity is ratio of efficacy of alpha-2A to that of alpha1A adrenoceptor. Type of experiment: functional.
The species named for experiment [6] is Rattus norvegicus. In words: Relative affinities for alpha2B and alpha1A receptors.
Experiment [7] is described as follows: Relative affinities for alpha-2a and alpha-1A receptors.
Experiment [8] deals with Alpha adrenergic receptor 1A and 1B (Rattus norvegicus) (UniProt P15823+P43140). Description: Selectivity is ratio of pKi (binding affinity) of alpha-1B receptor to that of alpha-1A receptor. The class given is protein assay.
In experiment [9] the target is Alpha adrenergic receptor 1A and 1D (Rattus norvegicus) (UniProt P23944+P43140). In words: Selectivity is ratio of pKi (binding affinity) of Alpha-1D to that of alpha1A. The class given is protein assay.
For experiment [10], the species on record is Canis familiaris. In words: Ratio of MAP ED delta20 to that of IUP ED delta5.
Experiment [11] concerns the target Alpha-1D adrenergic receptor (Rattus norvegicus, UniProt P23944). In words: In vitro binding affinity towards alpha-1D adrenergic receptor of rat clone in radioligand binding assay. In short, it runs like this:
as §1

Experiment [12] deals with Alpha-2A adrenergic receptor (Homo sapiens, UniProt P08913). In words: In vitro binding affinity towards alpha-2A adrenergic receptor of human clone in radioligand binding assay.
Experiment [13] addresses Alpha-1B adrenergic receptor (Rattus norvegicus) (UniProt P15823). In words: Functional agonism of the compounds to constrict tissue containing the alpha-1B adrenergic receptor in rat spleen. The class given is tissue-based. The procedure, abridged:
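Agonist dose–response curves were run on isolated tissue: rabbit urethra for α1A, rat spleen for α1B, and rat aorta for α1D.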

What is called Ki is the dissociation constant of the complex between target and ligand, obtained from inhibition or displacement. Read a high Ki as a looser hold on the target. With `CS(=O)(=O)Nc1cccc2c1CCCC2c1c[nH]cn1` (stereo not drawn), the pD2 amounted to 6.35 in experiment [1] and 7.45 in [2]. The Ki in experiment [3] was 4.68 µM; in [4], 0.195 µM. The Selectivity in [5] was 0.08; in experiment [6], 3; in experiment [7], 0.5; in [8] it was 20; in [9] it was 8. Besides, the Ratio in experiment [10] was 4.8.

For the compound `CS(=O)(=O)Nc1cccc2c1CCC=C2c1c[nH]cn1`, the pD2 in [1] is 4.67 and 4.54. Also, the Ki in experiment [11] is 1.7 µM; in experiment [3], 10.5 µM and > 10 µM; in experiment [4], 1.15 µM. Also, the Selectivity in experiment [8] is 9 and > 10; in experiment [9] it was 1 and 3.

In experiment [12], `CCS(=O)(=O)Nc1cccc2c1CCC2c1c[nH]cn1` (stereo not drawn) had a Ki of 0.0977 µM. Moreover, the figures for the pD2 in experiment [1] and in experiment [2] were 7.18 and 6.68, respectively. Besides, the Selectivity stood at 3 in experiment [5]; 8 in [6]; 4 in experiment [7]; 90 in [8]; 40 in experiment [9]. Further, the Ratio in experiment [10] is 1.3.

Turning to `CC(=O)Nc1cccc2c1CCCC2c1c[nH]cn1` (stereo not drawn), the pD2 in experiment [1] was found to be 5.89; in experiment [2], 6.64; in experiment [13], 4.84. Moreover, the Ki in experiment [11] and in experiment [3] was above 10 µM each time. Further, the Selectivity amounted to 0.2 in experiment [5]; 6 in experiment [6]; 1 in experiment [7]; 20 in experiment [8]; 19 in [9]. For the same compound, the Ratio in experiment [10] came to 3.1.

`CS(=O)(=O)Nc1cccc2c1OCCC2c1c[nH]cn1` (stereo not drawn): the pD2 is 6 in experiment [1] and 5.09 in experiment [13]. In experiment [3], this compound showed a Ki above 10 µM. For the same compound, the Selectivity in experiment [8] is 20; in [9], 2. Also, the Ratio in [10] was determined as 2.3.

On to `CS(=O)(=O)Nc1cccc2c1CCC[C@H]2c1c[nH]cn1`, for which the pD2 turned out to be 6.45 in experiment [1] and 8.05 in experiment [2]. In addition, the figures for the Selectivity in experiment [5], in experiment [8] and in [9] were 0.03, 20 and 20, respectively. Moreover, the Ratio in experiment [10] was 4.4.

The values above are taken from ChEMBL document CHEMBL1148329, “Synthesis and structure-activity studies on N-[5-(1H-imidazol-4-yl)-5,6,7,8-tetrahydro-1-naphthalenyl]methanesulfonamide, an imidazole-containing alpha(1A)-adrenoceptor agonist” (J Med Chem, 2004).
